Experiments:
[1] = system: MCF7/luc cells pulmonary metastases; experiment: Artificial lung metastases treated with liposomes; format: in vivo, mouse; conditions: 7 weeks after vein inoculation, three once-weekly treatments
Method: Preparation of liposomes. Unilamellar vesicles consisting of PC/Chol/mPEG-2000-DSPE (47/47/6% molar ratio) have been prepared by means of lipid film hydration. Briefly, the composition of phospholipids (PC), (Chol and MPEG-2000-DSPE), has been dissolved in a small volume of methanol/chloroform (50/50) mixture. Successively the solvent allowed to be evaporated under mild nitrogen flow. For the preparation of empty liposomes, the lipid film has been hydrated with 5 ml of HBS isotonic buffer (140 mM NaCl and 10 mM Hepes) using vortex mixer for 1 hr. For loading liposomes with 1257 phosphopeptide the freezing-thawing cyclic method has been used. The lipid film has been hydrated with 2.5 m of HBS buffer. The empty liposome suspension has been mixed with 2.5 ml of a solution containing 500 M of 1257 phosphopeptide in HBS buffer. Then the solution has been frozen at −196° C. in liquid nitrogen and thawed over 5 minutes at 30° C. in thermostated bath for 10 consecutive cycles in order to allow the peptide penetration into liposomes. […]
Since the object of the work is to inhibit or reduce the metastasis formation, it has been verified whether 1257 phosphopeptide was suitable not only to reduce the tumour, but also cell metastatic ability. To this purpose artificial metastases have been generated by vein inoculation of MCF7/luc cells in order to visualize tumours through luminescence. […]

BT474 xenograft = experiment: Electroporation tumour therapy of BT474 xenografts; format: in vivo, SCID mice; conditions: Herceptin i.p. (FIG. 11A)
Method: Xeno-grafts. In vivo tests have been carried out using 40 day old SCID female mice (Harlan Laboratories, Milan, IT). At day 0, animals have been totally anesthetized with intramuscular injection of 400 μg/animal (average weight 25 g) of Zoletil (Virbac) containing 0.12% Xylor (Xylazine), and transplanted subcutaneously (s.c.), in intrascapular mouse region with pellet of […] (1.7 mg/sustained release pellet over 60 days, Innovative Research of America, Sarasota, Fla.). On the next day, 5×10^6 proliferating and scr and 1257 peptide previously transfected, as above described, MCF7 or BT474 cells, have been re-suspended in 0.1 ml of Matrigel (BD Biosciences) and subcutaneously inoculated in each mouse. Herceptin treatment involved intraperitoneal injection of 250 ul of sterile PBS containing 500 ug of antibody, two times weekly. Tumour growth has been monitored two times weekly using calibration along two orthogonal axes: length (L) and […]. The tumour volume (V) has been calculated using the formula V=L*(W2)/2. […]
Electroporation tumour therapy. […] As a further control we have analyzed two groups of not peptide injected animals, except that one of two was subjected to electroporation. Therapy has been repeated once weekly, and tumour size monitored up to 70 days. […]

## Herceptin: humanized monoclonal antibody against HER2 receptor extracellular domain [reference compound]
[1]
  lung metastases (bioluminescence): progression of lung metastasis occurs
BT474 xenograft
  tumour mass compared to not treated control: reduces very remarkably the tumour mass
